Data as given in paper PMC9005681, “Use of AD Informer Set compounds to explore validity of novel targets in Alzheimer's disease pathology” (Alzheimer's & Dementia : Translational Research & Clinical …, 2022).

The chains behind the UniProt entries cited, without tags or fusion partners.
UniProt P35367, whole entry: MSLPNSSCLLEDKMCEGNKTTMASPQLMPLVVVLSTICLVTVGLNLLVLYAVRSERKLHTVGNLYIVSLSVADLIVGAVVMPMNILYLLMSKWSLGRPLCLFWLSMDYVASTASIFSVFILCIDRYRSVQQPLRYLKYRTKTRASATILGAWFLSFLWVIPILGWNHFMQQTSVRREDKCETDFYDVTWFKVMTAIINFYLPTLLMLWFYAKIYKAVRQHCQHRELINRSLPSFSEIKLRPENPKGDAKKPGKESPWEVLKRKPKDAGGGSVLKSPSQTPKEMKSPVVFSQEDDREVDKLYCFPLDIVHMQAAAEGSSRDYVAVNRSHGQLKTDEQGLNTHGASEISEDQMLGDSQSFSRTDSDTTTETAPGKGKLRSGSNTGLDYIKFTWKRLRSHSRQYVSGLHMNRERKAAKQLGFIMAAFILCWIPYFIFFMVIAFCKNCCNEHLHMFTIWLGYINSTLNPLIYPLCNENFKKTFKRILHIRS

How the values were obtained:
EPHX2 = tested on: EPHX2; set-up: method as in column References for potency and dosing (the 5th table c13); conditions: published affinity; References for potency and dosing; cited from earlier work
[1] = biological target: T1, cloned human or rodent CNS receptors, channels, and transporters (PDSP panel) (Homo sapiens, UniProt P35367); assay: PDSP GPCR panel primary binding assays at 10 μM; conditions: Receptor H1, primary assay
T1 construct: expressed in transfected cells
Experimental: GPCR panel: Screening against the receptors within the PDSP panel offers an assessment of off-target pharmacological activity at cloned human or rodent CNS receptors, channels, and transporters that could confound CNS-related phenotypes. A total of 46–47 primary binding assays were run in quadruplicate on these compounds at 10 μM, with follow-up secondary binding assays in 11-point dose-response in triplicate for select compounds versus select receptors. Secondary binding assays were executed for all receptors where test compound displaced an average of >50% of radio-labeled standard ligand. As an exception, no secondary assays were carried out for H3, PBR, or GABAA. […]

[2] = tested on: phospho-Tau (pTau, Thr231) and total Tau; assay: p-tau and t-tau in iPSC-derived neuron lysates, multiplexed ELISA; format: cell-based, human; conditions: 48 hours, both doses (0.1, 1 μM)
Experimental: Measurements of phospho-Tau (pTau, Thr231) and total Tau peptides were measured from neuronal lysates, also using a multiplexed ELISA assay. Using this assay, we measured the phospho:total tau ratio for each condition compared to vehicle (DMSO) treatment as well as the individual changes in phospho and total Tau peptides. Finally, all neuronal samples were examined morphologically for evidence of cytotoxicity.

SYK = conditions: published affinity; ref PubMed 24779514, Probe Miner, Chemical probes portal; cited from earlier work

CC(=O)N1CCC(NC(=O)NC23CC4CC(CC(C4)C2)C3)CC1 [UNC10302683A, AR9281]
Reported on-target biochemical potency, EPHX2 (EPHX2): 15 nM

c1cn2cc(-c3ccc4cn[nH]c4c3)nc(Nc3ccc(N4CCOCC4)cc3)c2n1 [UNC10302678A, Entospletinib (GS-9973)]
Inhibition 1 [1]: 100.46%
Inhibition 2 [1]: 89.3%
Inhibition 3 [1]: 77.51%
Inhibition 4 [1]: 57.87%
Mean % ([1]; mean of Inhibition 1-4): 81.29%
p-tau:t-tau ratio [2]: no change

Cl.NC(=O)c1cnc(N[C@@H]2CCCC[C@@H]2N)nc1Nc1cccc(-n2nccn2)c1 [UNC10302682A, P505-15 (PRT06207 HCl)]
Reported on-target biochemical potency, SYK (SYK): 2.1 nM
